Literature values in article PMC7522491, “Gut microbiota impairs insulin clearance in obese mice” (Molecular Metabolism, 2020).

Q: With insulin as the substance, how does the “insulin depleted from the blood by hepatic uptake and degradation during first-pass insulin clearance” value read?
A: 50–80%
